Source: ChEMBL document CHEMBL2390846, “Small-molecule pyrimidine inhibitors of the cdc2-like (Clk) and dual specificity tyrosine phosphorylation-regulated (Dyrk) kinases: development of chemical probe ML315” (Bioorg Med Chem Lett, 2013)

Sequences of proteins named here, by UniProt entry; tags and fusion partners are left off. A change or cut given only in a name is not applied to a line headed by its entry.
UniProt Q9HAZ1: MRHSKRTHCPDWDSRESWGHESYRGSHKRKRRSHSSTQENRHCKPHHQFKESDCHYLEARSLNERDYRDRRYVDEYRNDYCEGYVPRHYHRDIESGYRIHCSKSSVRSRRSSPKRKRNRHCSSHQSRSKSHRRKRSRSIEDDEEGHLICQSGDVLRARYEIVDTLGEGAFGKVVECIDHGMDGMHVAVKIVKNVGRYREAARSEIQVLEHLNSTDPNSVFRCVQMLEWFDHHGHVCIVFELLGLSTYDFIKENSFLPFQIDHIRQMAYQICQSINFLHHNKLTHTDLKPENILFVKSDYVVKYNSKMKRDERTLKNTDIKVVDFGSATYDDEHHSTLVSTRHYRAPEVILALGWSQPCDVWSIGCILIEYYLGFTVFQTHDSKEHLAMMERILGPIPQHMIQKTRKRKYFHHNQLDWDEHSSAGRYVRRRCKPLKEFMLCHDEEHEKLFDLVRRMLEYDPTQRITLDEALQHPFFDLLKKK

Biological target: Dual specificity protein kinase CLK4 (Homo sapiens, UniProt Q9HAZ1)
Assay: Inhibition of CLK4 (unknown origin) by bioluminescence assay

IC50: 9.23 µM
SMILES: c1cncc(CNc2ncncc2-c2ccc3c(c2)OCO3)c1
